The values that follow come from publication PMC5927803 (Pharmacology Research & Perspectives, 2018).

Protein sequences, listed by entry. Tags and fused reporters are not part of them. Lines headed by an entry give the natural chain unless they say otherwise; changes in a name come on top.
UniProt P11229: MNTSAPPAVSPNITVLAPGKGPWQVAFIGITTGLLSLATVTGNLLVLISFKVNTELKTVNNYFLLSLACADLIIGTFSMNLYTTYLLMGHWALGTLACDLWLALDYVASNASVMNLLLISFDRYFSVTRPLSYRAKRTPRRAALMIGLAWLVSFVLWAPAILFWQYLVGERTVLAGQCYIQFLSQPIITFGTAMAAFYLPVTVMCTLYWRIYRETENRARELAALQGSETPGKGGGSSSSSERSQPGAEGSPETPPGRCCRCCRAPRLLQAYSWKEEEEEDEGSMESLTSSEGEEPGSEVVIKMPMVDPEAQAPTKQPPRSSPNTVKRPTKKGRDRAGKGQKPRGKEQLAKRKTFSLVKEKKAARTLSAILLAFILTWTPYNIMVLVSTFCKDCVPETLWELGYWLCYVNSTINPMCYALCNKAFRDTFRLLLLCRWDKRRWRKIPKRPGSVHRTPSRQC
UniProt P08173, whole entry: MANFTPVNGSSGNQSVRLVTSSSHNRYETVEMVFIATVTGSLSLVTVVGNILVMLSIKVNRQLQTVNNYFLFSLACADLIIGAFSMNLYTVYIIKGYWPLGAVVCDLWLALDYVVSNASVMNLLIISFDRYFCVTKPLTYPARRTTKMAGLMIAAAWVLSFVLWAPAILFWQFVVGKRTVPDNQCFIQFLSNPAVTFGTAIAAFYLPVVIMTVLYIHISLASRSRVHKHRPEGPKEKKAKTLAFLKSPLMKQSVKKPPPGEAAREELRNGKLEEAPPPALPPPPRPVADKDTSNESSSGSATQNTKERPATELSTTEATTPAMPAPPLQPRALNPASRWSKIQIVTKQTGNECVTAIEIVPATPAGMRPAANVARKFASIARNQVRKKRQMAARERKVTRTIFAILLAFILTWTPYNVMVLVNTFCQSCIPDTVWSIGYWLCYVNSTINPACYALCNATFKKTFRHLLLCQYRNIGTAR
UniProt P20309, whole entry: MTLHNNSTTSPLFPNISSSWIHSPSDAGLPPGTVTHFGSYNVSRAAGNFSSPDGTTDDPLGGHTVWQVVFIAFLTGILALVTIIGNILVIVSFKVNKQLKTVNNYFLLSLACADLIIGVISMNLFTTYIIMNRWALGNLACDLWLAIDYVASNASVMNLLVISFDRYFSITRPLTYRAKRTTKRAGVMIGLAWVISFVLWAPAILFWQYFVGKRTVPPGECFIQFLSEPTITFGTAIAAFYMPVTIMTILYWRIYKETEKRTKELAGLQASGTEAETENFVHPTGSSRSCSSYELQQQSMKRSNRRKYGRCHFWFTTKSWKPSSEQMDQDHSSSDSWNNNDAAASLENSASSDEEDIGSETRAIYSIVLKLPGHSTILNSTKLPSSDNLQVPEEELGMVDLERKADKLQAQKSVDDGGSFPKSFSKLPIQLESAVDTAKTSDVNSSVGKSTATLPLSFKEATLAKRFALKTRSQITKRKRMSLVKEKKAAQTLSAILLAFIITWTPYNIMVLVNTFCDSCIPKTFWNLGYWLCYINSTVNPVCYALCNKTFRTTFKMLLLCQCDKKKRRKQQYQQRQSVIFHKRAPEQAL
UniProt P08172, whole entry: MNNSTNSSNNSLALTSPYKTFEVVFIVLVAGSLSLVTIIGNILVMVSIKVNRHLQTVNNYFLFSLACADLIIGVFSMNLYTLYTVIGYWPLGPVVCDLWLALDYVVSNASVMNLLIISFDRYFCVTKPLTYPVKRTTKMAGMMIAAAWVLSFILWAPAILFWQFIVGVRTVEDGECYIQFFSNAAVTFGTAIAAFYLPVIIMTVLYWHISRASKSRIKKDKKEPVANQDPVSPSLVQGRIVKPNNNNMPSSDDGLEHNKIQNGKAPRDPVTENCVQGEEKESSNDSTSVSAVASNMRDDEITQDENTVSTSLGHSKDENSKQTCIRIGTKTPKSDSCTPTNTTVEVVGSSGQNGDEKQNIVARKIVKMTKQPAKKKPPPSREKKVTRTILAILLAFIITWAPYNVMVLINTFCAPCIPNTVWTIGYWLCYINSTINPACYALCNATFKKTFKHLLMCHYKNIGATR

The target in test [1] is T1, hM1 mAChR (Homo sapiens, UniProt P11229). In words: Competition radioligand binding, [^3H]NMS.
The target of the next test is hM4 mAChR (Homo sapiens, UniProt P08173). In words: Competition radioligand binding, [^3H]NMS.
Test [2] has as its target T1, hM1 mAChR. In words: Inhibition of agonist-stimulated calcium mobilization. The format is cell-based. For orientation: A change in cytosolic calcium serves as a functional read-out for many receptors and channels.
The target in test [3] is T2, hM3 mAChR (Homo sapiens, UniProt P20309). The test is described as above. The format is cell-based.
Test [4] addresses T3, hM2 mAChR (Homo sapiens, UniProt P08172). The experiment in a line: Inhibition of agonist-stimulated [^35S]GTPγS binding, CHO-K1 membranes. In kind it is biochemical. (GTPγS is a poorly hydrolysed GTP analogue; its binding reports G protein activation.)
In test [5] the target is T3, hM2 mAChR. The experiment in a line: biochemical. The conditions noted are these: hM2 pKI, [^3H]NMS competition, CHO-K1 membranes, 37°C; mean ± SD.
The target in test [6] is T2, hM3 mAChR. The experiment in a line: Competition radioligand binding, [^3H]NMS. The following applies: hM3 pKI, [^3H]NMS competition, CHO-K1 membranes, 37°C; mean ± SD.

Regarding `C[N+]1(C)CCC(OC(=O)C(O)(c2ccccc2)C2CCCC2)C1` (centres unmarked) [Glycopyrrolate], the Ki (as a rule, a dissociation constant, usually derived from enzyme kinetics or from competition with a known ligand) on hM1 mAChR [1] is 0.275 nM; on hM4 mAChR it was 0.372 nM.
On to `CC(C)[N+]1(C)[C@@H]2CC[C@H]1C[C@@H](OC(=O)C(CO)c1ccccc1)C2` (some centres unmarked) [Ipratropium, reference compound], for which the inhibition constant Ki is 0.151 nM at hM1 mAChR [2]; 0.0427 nM at hM3 mAChR [3]; 0.174 nM at hM2 mAChR [4]; 0.933 nM at hM2 mAChR [5]; 1.78 nM on hM1 mAChR [1]; 1.07 nM on hM3 mAChR [6].
